Patent US9532983B2, “Benzofuran compounds, compositions, kits and/or methods thereof” (Savannah State University, priority 2013, dated 2017)

By UniProt entry, the sequences of proteins in these tests, tags left out.
UniProt Q9R0C9, whole entry: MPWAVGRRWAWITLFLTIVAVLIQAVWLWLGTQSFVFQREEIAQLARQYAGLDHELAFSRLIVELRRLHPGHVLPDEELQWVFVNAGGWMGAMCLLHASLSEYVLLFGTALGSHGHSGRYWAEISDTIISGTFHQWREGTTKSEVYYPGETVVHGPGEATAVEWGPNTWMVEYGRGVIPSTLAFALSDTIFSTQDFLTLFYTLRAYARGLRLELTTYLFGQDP

Target: T1, σ1 receptor (Rattus norvegicus, UniProt Q9R0C9)
T1 construct: crude membrane fractions prepared from rat brain homogenate for σ1 receptors; from tissue; host or cells: rat brain homogenate, crude membrane fraction
Experiment: Primary binding assay at σ1 receptor (NIMH-PDSP)
Settings: 10 μM (final) assay concentration, read-out: % Inhibition σ-1
Method: Initial primary binding screening assays were performed using a 50 μM (initial)−10 μM (final) assay concentration of reference and test compounds.
Finally, either crude membrane fractions prepared from rat brain homogenate for σ1 receptors or PC12 cell homogenates for σ2 receptors were added to the wells, and the plates shielded from light to prevent photolysis of light sensitive ligands.

Cc1c(C(=O)N(CCCN2CCCCC2)c2ccccc2)oc2ccccc12 [KSCM-5, 3-Methyl-N-phenyl-N-(3-(piperidin-1-yl)propyl)benzofuran-2-carboxamide]
inhibition at 10 µM: 101%
